This is an account of results in US20060240535A1, “Carbonyl reductase from lactococcus lactis” (GEORGIA TECH RESEARCH CORPORATION, priority 2004, published 2006).

By UniProt entry, the sequences of proteins in these tests, tags left out.
UniProt Q9CJ60, entry or part of it: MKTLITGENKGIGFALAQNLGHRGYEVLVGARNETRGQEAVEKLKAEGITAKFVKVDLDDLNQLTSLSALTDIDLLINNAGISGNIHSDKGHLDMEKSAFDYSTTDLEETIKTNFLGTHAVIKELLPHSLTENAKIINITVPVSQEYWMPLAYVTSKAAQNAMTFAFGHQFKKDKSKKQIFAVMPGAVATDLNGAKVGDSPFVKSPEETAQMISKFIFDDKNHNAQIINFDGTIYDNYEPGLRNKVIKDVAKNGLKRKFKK

In this series the target is carbonyl reductase from Lactococcus lactis (LL-CR) (Lactococcus lactis, UniProt Q9CJ60). In words: Purified CRLL activity in aqueous-organic tunable solvents (OATS). The format is biochemical. The settings on record: acetonitrile, dioxane, or tetrahydrofuran. Here is the method: As LL-CR requires organic buffers for stability, such as HEPES or triethanolamine, runs were conducted in partially organic systems using a buffer system of 200 mM NH4CHO3 and 50 mM HEPES at pH 7.0.

Some results are limits rather than exact numbers.

In the case of NADPH, the “organic solvent content at which stable” value was at most 60%.
